Source: patent US20120094995A1, “2-AZA-BICYCLO[2.2.1]HEPTANE COMPOUNDS AND USES THEREOF” (ASTRAZENECA AB, priority 2009, published 2012)

Protein sequences, listed by entry. Tags and fused reporters are not part of them. Residues count along the entry.
UniProt P48067, 1-652 isoform 3: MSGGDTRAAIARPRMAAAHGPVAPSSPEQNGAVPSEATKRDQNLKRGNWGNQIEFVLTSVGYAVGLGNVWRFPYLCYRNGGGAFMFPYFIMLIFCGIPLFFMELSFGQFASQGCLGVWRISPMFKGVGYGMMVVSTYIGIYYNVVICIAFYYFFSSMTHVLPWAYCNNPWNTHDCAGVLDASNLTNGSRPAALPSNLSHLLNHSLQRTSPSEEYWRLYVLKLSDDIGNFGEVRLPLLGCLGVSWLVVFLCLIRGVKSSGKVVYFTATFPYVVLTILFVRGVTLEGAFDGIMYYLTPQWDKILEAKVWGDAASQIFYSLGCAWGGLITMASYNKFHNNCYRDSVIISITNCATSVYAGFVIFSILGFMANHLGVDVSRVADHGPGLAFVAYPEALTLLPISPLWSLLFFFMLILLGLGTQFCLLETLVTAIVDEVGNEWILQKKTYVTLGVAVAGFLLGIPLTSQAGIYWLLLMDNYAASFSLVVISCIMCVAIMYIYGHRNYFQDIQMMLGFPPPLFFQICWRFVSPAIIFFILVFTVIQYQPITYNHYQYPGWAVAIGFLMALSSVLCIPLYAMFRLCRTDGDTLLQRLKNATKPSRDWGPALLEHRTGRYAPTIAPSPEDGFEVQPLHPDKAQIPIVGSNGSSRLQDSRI

Target: human GlyT1b (Homo sapiens, UniProt P48067)
Test: [3H] Glycine Uptake Assay (SPA) in recombinant hGlyT1b-CHO cells
Format: cell-based
Conditions: Table 2, unit from table title

Structure (SMILES): Cc1cccc(Cl)c1C(=O)NC(c1ccccc1)C12CCC(CC1)N2C (stereo not shown) [Example 67]
- IC50: 104 nM
